Earlier results, collected in patent US20220023323A1, “RESETTING BIOLOGICAL PATHWAYS FOR DEFENDING AGAINST AND REPAIRING DETERIORATION FROM HUMAN AGING” (priority 2015, published 2022).

Conditions: in vivo; cited from earlier work

Substance: sodium sulfide [Na2S]
- time to increase of H2S concentration: within seconds to minutes
